UUG fidelity: alters start codon recognition fidelity in yeast; S. cerevisiae UUG-firefly luciferase reporter, luminescence/redox ratio; activity score, % at 18.7 µM; hit rate 0.13% among 350,000;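 active = replicate mean at a twofold rise or more, about +100% in these data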;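 also: firefly luciferase made from a UUG start codon reports start codon fidelity; reporter light over untreated wells divided by growth signal over untreated wells; some hits fall short of that in this replicate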
miR122 inh: miR-122 Renilla sensor signal increase in Huh7, primary screen, miR-122 inhibitor project, cell-based, single point, plate reader. Huh7 miR-122 Renilla luciferase sensor, 48 h; neutral wells = 0, positive control = 100. activation (reporter increase), % at 12.5 µM. 340,000 tested, 0.3% active. AID 602342, 2012;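 active = mean replicate activation score at least 90 and every replicate individually at or above 90; inconclusive = only one of the two criteria met; inactive = neither criterion met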;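 also: higher luciferase means less miR-122 activity so hits act as miR-122 inhibitors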
Wnt bcat act: Wnt/beta-catenin pathway activators, primary screen, cell-based, plate reader, single point; activation, % at 9.35 µM; Wnt/beta-catenin reporter cell assay, activator; 300,000 tested, 1.2% active; in the data active = activation above about 30%, passing the limit was not always enough; inconclusive = no clear call, values can overlap the other calls;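 also: 0% = neutral control wells and 100% = positive control wells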
MITF act: activators of MITF-driven TRPM1 promoter reporter, primary screen, cell-based, SK-MEL-5, luciferase, single point | SK-MEL-5 TRPM1-promoter luciferase, 24 h; % of positive control, neutral wells = 0 | activation, % at 12.5 µM | 300,000 tested, 0.75% active | AID 588334, 2011;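 active = mean activation of at least 80% with every replicate also reaching 80%; inconclusive = mean reaches 80% but some replicate falls short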;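 also: 0% = neutral control wells and 100% = parthenolide positive control wells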
TRPM1 prom inh: inhibitors of MITF-dependent TRPM1 promoter reporter, primary screen, cell-based, SK-MEL-5, single point, luciferase. SK-MEL-5 TRPM1 promoter luciferase, 24 h. inhibition, % at 12.5 µM. 330,000 tested, 0.83% active;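 active = mean inhibition across replicates of 60% or more, whatever share of single replicates reaches that level; inconclusive = some that reach 60%, reason not given; inactive = mean inhibition across replicates below 60%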
PGC1a acetyl inh: inhibitors of PGC1a acetylation signal, primary screen, cell-based, U2OS, AlphaScreen, inhibitor mode; AlphaScreen anti-acetyl-lysine; with virally co-expressed GCN5 acetyltransferase; inhibition, % at 15.6 µM; 350,000 tested, 0.17% active;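 active = every replicate shows inhibition of at least 40%; inconclusive = mean inhibition at least 40% but some replicate below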;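 also: 0% = neutral control wells and 100% = positive control wells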
An asterisk follows results filed as active; ? = inconclusive; nt = not tested or not shown; [ ] = dose if it differs, or a comment. Shown are actives, neighbours in structure and some others; about 2.1% of the full set was active somewhere.

nr | UUG fidelity | miR122 inh | Wnt bcat act | MITF act | TRPM1 prom inh | PGC1a acetyl inh | mol
1 | nt | nt | 39* | ? | -85 | nt | COc1ccc2[nH]cc(/C=C/C(=O)c3ccccc3)c2c1
2 | nt | nt | 61* | 54 | -45 | nt | COc1ccc(/C=C/C(=O)c2ccccc2)c(OC)c1
3 | -28 | 145* | 0 | ? | -72 | -5 | COc1ccc(/C=C/C(=O)c2ccc3c(c2)OCO3)c(OC)c1
4 | nt | -1[16.7 µM] | nt | nt | nt | 5 | C[C@@H]1CN([C@H](C)CO)C(=O)c2cc(NS(=O)(=O)c3cn(C)cn3)ccc2O[C@@H]1CN(C)C(=O)Nc1ccc(F)cc1
5 | nt | nt | -1 | -70 | 70* | nt | CC1CC(C)C[N+](=C2C=C(N3CCCC3)CC(C)(C)C2)C1 (stereo not given)
6 | nt | -4 | 0 | 0 | 0 | 97* | Cc1nc(C(C)N(C)Cc2nc(-c3ccc4c(c3)OCO4)no2)c(C)s1 (stereo not given)
7 | -11 | -1 | -1 | nt | -1 | -3 | Cc1cccc(-c2noc(CN(C(=O)c3ccc4c(c3)OCO4)C(C)C)n2)c1
8 | 4 | 48[16.7 µM] | nt | nt | nt | -1 | CCCNC(=O)Nc1ccc2c(c1)C(=O)N(C)[C@@H]1CC[C@H](CC(=O)NCCCN(C)C)O[C@@H]1CO2
9 | -23 | 3 | -9 | nt | 8 | 6 | O=C(Oc1ccc(/C=N/Nc2ccccc2)cc1)c1ccccc1
10 | -6 | 4 | 3 | -76 | 78* | 1 | O=C(O)c1ccc(N/N=C/c2ccc(OC(=O)c3cccc(Cl)c3)cc2)cc1
11 | nt | nt | 15 | 14 | -9 | nt | O=C(N/N=C/c1cccs1)C(=O)Nc1cccc(Cl)c1
12 | -37 | 3 | 26 | -73 | 74* | -7 | O=C(O)c1cccc(N/N=C/c2ccc(OC(F)(F)F)cc2)c1
13 | nt | nt | nt | 17 | -24 | nt | O=C(O)c1ccc(N/N=C/c2cccc(F)c2)cc1
14 | nt | nt | -2 | -76 | 77* | nt | O=C(O)c1cccc(N/N=C/c2cccs2)c1
15 | nt | nt | nt | -79 | 79* | 2 | CSc1ccc(/C=N/Nc2cccc(C(=O)O)c2)cc1
16 | nt | nt | 15 | 17 | -19 | 12 | COC(=O)c1ccc(COc2ccc(/C=N/Nc3cccc(C(=O)O)c3)cc2)cc1
17 | nt | 5[16.7 µM] | nt | nt | nt | 2 | COc1ccc(CN(C)C[C@@H]2Oc3ccc(NC(=O)NC(C)C)cc3C(=O)N([C@H](C)CO)C[C@@H]2C)cc1
18 | nt | nt | 36* | nt | 4 | nt | CCOC(=O)C1=C(Nc2ccc(OC)cc2)OCC1=O
19 | -22 | 7 | nt | 13 | -16 | ? | CCOC(=O)C1=C(Nc2ccccc2)OCC1=O
20 | nt | 2[16.7 µM] | nt | nt | nt | 5 | CS(=O)(=O)N1C[C@H](O)COC[C@@H]2O[C@@H](CC(=O)NCc3ccc(-c4ccccc4)cc3)CC[C@H]21
21 | -14 | -78 | -25 | -97 | 96* | 78* | O=C1/C(=C/c2ccncc2)CCC/C1=C\c1ccncc1
22 | nt | nt | 53* | 42 | -43 | nt | CCC1(CC)Nc2ccccc2C(=O)N1c1ccc(OC)cc1
23 | -14 | -4 | 9 | 9 | -10 | -4 | CCC1(CC)Nc2ccccc2C(=O)N1c1ccc(NC(C)=O)cc1
24 | -14 | -1 | 23 | 98* | -95 | -5 | Cc1ccc(-c2csc(C(C#N)=C3CCCC3)n2)cc1
25 | 3 | nt | 19 | 88* | -83 | 7 | N#CC(=C1CCCC1)c1nc(-c2cc3ccccc3oc2=O)cs1
26 | -16 | -4 | nt | 68 | -66 | -22 | N#CC(=C1CCCC1)c1nc(-c2ccccc2O)cs1
27 | nt | 0 | nt | 121* | -110 | -2 | N#CC(=C1CCCC1)c1nc(-c2ccccc2)cs1
28 | 18 | -13[16.7 µM] | nt | nt | nt | nt | Cc1ccc(S(=O)(=O)Nc2ccc3c(c2)C(=O)N([C@@H](C)CO)C[C@H](C)[C@H](CN(C)Cc2ccc4c(c2)OCO4)OCCCC[C@H](C)O3)cc1
29 | -25 | -4 | 35* | 50 | -49 | 0 | COc1ccc(-c2cn3cccc(C)c3n2)cc1Br
30 | -12 | 2 | nt | 38 | -36 | -4 | Cc1cccn2cc(-c3ccccc3)nc12
31 | -19 | 8 | 55* | -2 | 3 | nt | Cc1cccn2cc(-c3ccc(F)cc3)nc12
32 | 4 | -16 | -8 | -38 | 41 | 78* | O=P(CCCCCCCCCP(=O)(c1ccccc1)c1ccccc1)(c1ccccc1)c1ccccc1
